Laboratory results taken from patent EP4837910A1, “ISOXAZOLINE COMPOUND AND PREPARATION METHOD THEREFOR, HERBICIDAL COMPOSITION, AND USE” (dated 2026).

Key:
[1] = test system: Monocotyledonous and dicotyledonous weed; test: Pre-emergence test on weeds (greenhouse, sprayed immediately after sowing); settings: after 4 weeks in greenhouse, fresh weight control rate
[2] = test system: Triticum aestivum; test: Pre-emergence test, crop damage (greenhouse, sprayed immediately after sowing); settings: after 4 weeks in greenhouse, fresh weight control rate
[3] = test system: Zea mays; test: as above; settings: after 4 weeks in greenhouse, fresh weight control rate
[4] = test system: Monocotyledonous and dicotyledonous weed; test: Post-emergence test on weeds (greenhouse, spray tower); settings: Dosage 240 g a.i./ha, after 3 weeks of cultivation in a greenhouse, fresh weight control rate

SMILES | activity level of plant damage (growth control rate), Setaria viridis ([1]; Dosage 240 g a.i./ha) | activity level of plant damage (growth control rate), Triticum aestivum ([2]; Dosage 240 g a.i./ha) | activity level of plant damage (growth control rate), Zea mays ([3]; Dosage 240 g a.i./ha) | activity level of plant damage (growth control rate), Digitaria sanguinalis ([1]; Dosage 240 g a.i./ha) | activity level of plant damage (growth control rate), Lolium multiflorum ([1]; Dosage 240 g a.i./ha) | activity level of plant damage (growth control rate), Descurainia sophia ([1]; Dosage 240 g a.i./ha) | activity level of plant damage (growth control rate), Descurainia sophia ([1]; Dosage 250 g a.i./ha) | activity level of plant damage (growth control rate), Triticum aestivum ([2]; Dosage 250 g a.i./ha) | activity level of plant damage (growth control rate), Zea mays ([3]; Dosage 250 g a.i./ha) | Avena fatua, activity level of plant damage (growth control rate) [4]
C=C[C@@]1(C(=O)N[C@H](C)C(=O)NOC)CC(c2cc(Cl)cc(C(F)(F)F)c2)=NO1 | 9 | 0 | 0 |  |  |  |  |  |  | 
C=C(C)[C@]1(C(=O)N[C@@H](C)C(=O)N(C)OC)CC(c2cc(C(F)(F)F)cc(C(F)(F)F)c2)=NO1 | 9 | 2 (Level 2: growth control rate greater than or equal to 10% and less than 20%) | 2 (Level 2: growth control rate greater than or equal to 10% and less than 20%) | 9 | 9 |  |  |  |  | 
CON(C)C(=O)[C@@H](C)NC(=O)C1(C)CC(c2cc(Cl)nc(Cl)c2)=NO1 (stereo partly drawn) |  | 0 | 1 (Level 1: growth control rate less than 10%) |  |  | 5 (Level 5: growth control rate greater than or equal to 50% and less than 70%) |  |  |  | 
C=C[C@]1(C(=O)N[C@@H](C)C(=O)NOC)CC(c2cc(C)cc(Cl)c2)=NO1 |  | 2 (Level 2: growth control rate greater than or equal to 10% and less than 20%) | 0 |  | 5 (Level 5: growth control rate greater than or equal to 50% and less than 70%) |  |  |  |  | 
CON(C)C(=O)[C@@H](C)NC(=O)C1(C)CC(c2cc(F)cc(F)c2)=NO1 (stereo partly drawn) |  |  |  |  |  |  | 5 (Level 5: growth control rate greater than or equal to 50% and less than 70%) | 0 | 0 | 
C=C[C@]1(C(=O)N[C@@H](C)C(=O)N(C)OCC(=C)C)CC(c2cc(F)cc(F)c2)=NO1 | 8 (Level 8: growth control rate greater than or equal to 90% and less than 100%) | 2 (Level 2: growth control rate greater than or equal to 10% and less than 20%) | 0 | 8 (Level 8: growth control rate greater than or equal to 90% and less than 100%) |  |  |  |  |  | 
C=C(C)[C@]1(C(=O)N[C@@H](C)C(=O)N(C)OC)CC(c2cc(C)cc(F)c2)=NO1 | 9 | 0 | 0 | 9 | 9 | 9 |  |  |  | 
C=CC1(C(=O)N[C@@H](C)C(=O)N(C)OC)CC(c2cc(C)cc(C)c2)=NO1 (stereo partly drawn) | 9 | 0 | 0 | 9 |  |  |  |  |  | 
C=C[C@]1(C(=O)N[C@@H](Cc2c[nH]cn2)C(=O)N(C)OC)CC(c2cc(F)cc(F)c2)=NO1 |  | 0 | 0 |  |  | 6 (Level 6: growth control rate greater than or equal to 70% and less than 80%) |  |  |  | 
CC[C@@]1(C(=O)N[C@@H](C)C(=O)N(C)OC)CC(c2cc(C)cc(F)c2)=NO1 |  | 0 | 0 |  |  | 9 |  |  |  | 
C=C[C@@]1(C(=O)N[C@H](C)C(=O)NOC)CC(c2cc(F)cc(Cl)c2)=NO1 |  | 0 | 0 |  |  | 9 |  |  |  | 
C=C[C@]1(C(=O)N[C@@H](C)C(=O)N(C)OC)CC(c2cc(Cl)c(Cl)c(C(F)(F)F)c2)=NO1 |  | 0 | 0 | 7 (Level 7: growth control rate greater than or equal to 80% and less than 90%) |  |  |  |  |  | 
C=CC1(C(=O)N[C@@H](C)C(=O)N(C)OCC)CC(c2cc(C)cc(Cl)c2)=NO1 (stereo partly drawn) | 6 (Level 6: growth control rate greater than or equal to 70% and less than 80%) | 0 | 0 | 8 (Level 8: growth control rate greater than or equal to 90% and less than 100%) |  |  |  |  |  | 
C=C[C@@]1(C(=O)N[C@@H](C)C(=O)N(C)OC)CC(c2cc(Br)cc(Br)c2)=NO1 |  | 0 | 1 (Level 1: growth control rate less than 10%) |  |  | 5 (Level 5: growth control rate greater than or equal to 50% and less than 70%) |  |  |  | 
CC[C@]1(C(=O)N[C@@H](C)C(=O)N(C)OC)CC(c2cc(C)cc(F)c2)=NO1 | 9 | 1 (Level 1: growth control rate less than 10%) | 0 | 9 | 9 | 5 (Level 5: growth control rate greater than or equal to 50% and less than 70%) |  |  |  | 
CC[C@@]1(C(=O)N[C@@H](C)C(=O)NOC)CC(c2cc(F)cc(OC(F)(F)F)c2)=NO1 |  | 2 (Level 2: growth control rate greater than or equal to 10% and less than 20%) | 1 (Level 1: growth control rate less than 10%) |  |  | 9 |  |  |  | 
C=C[C@]1(C(=O)N[C@@H](C)C(=O)N(C)OC)CC(c2cc(C)cc(Cl)c2)=NO1 | 9 | 2 (Level 2: growth control rate greater than or equal to 10% and less than 20%) | 0 | 9 | 9 |  |  |  |  | 
C=C[C@]1(C(=O)N[C@@H](C)C(=O)NOC)CC(c2cc(F)cc(OC)c2)=NO1 |  | 1 (Level 1: growth control rate less than 10%) | 0 |  |  | 5 (Level 5: growth control rate greater than or equal to 50% and less than 70%) |  |  |  | 
C=CC1(C(=O)N[C@@H](C)C(=O)N(C)OC)CC(c2cccc(F)c2)=NO1 (stereo partly drawn) |  | 2 (Level 2: growth control rate greater than or equal to 10% and less than 20%) | 2 (Level 2: growth control rate greater than or equal to 10% and less than 20%) |  | 9 |  |  |  |  | 
C=C[C@]1(C(=O)N[C@@H](C(=O)N(C)OC)C2CC2)CC(c2cc(F)cc(F)c2)=NO1 |  | 0 | 1 (Level 1: growth control rate less than 10%) |  |  | 5 (Level 5: growth control rate greater than or equal to 50% and less than 70%) |  |  |  | 
CC[C@]1(C(=O)N[C@@H](C)C(=O)N(C)OC)CC(c2cc(Cl)cc(OC(F)(F)F)c2)=NO1 | 9 | 1 (Level 1: growth control rate less than 10%) | 0 | 8 (Level 8: growth control rate greater than or equal to 90% and less than 100%) | 8 (Level 8: growth control rate greater than or equal to 90% and less than 100%) |  |  |  |  | 
C=CC1(C(=O)N[C@@H](C)C(=O)N(C)OCC2CCCO2)CC(c2cc(C)cc(Cl)c2)=NO1 (stereo partly drawn) | 5 (Level 5: growth control rate greater than or equal to 50% and less than 70%) | 0 | 0 |  |  |  |  |  |  | 
CC[C@@]1(C(=O)N[C@@H](C)C(=O)N(C)OC)CC(c2cc(Br)cc(Br)c2)=NO1 |  | 0 | 0 |  |  | 9 |  |  |  | 
CC[C@]1(C(=O)N[C@@H](C)C(=O)N(C)OC)CC(c2cc(F)cc(C(F)(F)F)c2)=NO1 | 9 | 2 (Level 2: growth control rate greater than or equal to 10% and less than 20%) | 0 | 5 (Level 5: growth control rate greater than or equal to 50% and less than 70%) | 6 (Level 6: growth control rate greater than or equal to 70% and less than 80%) | 9 |  |  |  | 
C=C[C@]1(C(=O)N[C@@H](C)C(=O)N(C)OC)CC(c2cc(C)cc(F)c2)=NO1 | 9 | 2 (Level 2: growth control rate greater than or equal to 10% and less than 20%) |  | 9 | 9 | 8 (Level 8: growth control rate greater than or equal to 90% and less than 100%) |  |  |  | 6 (Level 6: growth control rate greater than or equal to 70% and less than 80%)
